Reference: PubChem BioAssay AID504700 (The Scripps Research Institute Molecular Screening Center, 2011)
The list shows a part of the results, in another mix than the full data. Some tests of the compounds listed are not included; inactive here does not mean inactive elsewhere. Activity calls are given as the source filed them.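 How the source made its calls: active means activation above a cutoff set at the mean over all compounds plus 3 SD (cut at about 18% in these data); inactive means the rest.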

Chains of the proteins cited; added tags and fusions are not shown.
UniProt P31323, whole entry, looked up: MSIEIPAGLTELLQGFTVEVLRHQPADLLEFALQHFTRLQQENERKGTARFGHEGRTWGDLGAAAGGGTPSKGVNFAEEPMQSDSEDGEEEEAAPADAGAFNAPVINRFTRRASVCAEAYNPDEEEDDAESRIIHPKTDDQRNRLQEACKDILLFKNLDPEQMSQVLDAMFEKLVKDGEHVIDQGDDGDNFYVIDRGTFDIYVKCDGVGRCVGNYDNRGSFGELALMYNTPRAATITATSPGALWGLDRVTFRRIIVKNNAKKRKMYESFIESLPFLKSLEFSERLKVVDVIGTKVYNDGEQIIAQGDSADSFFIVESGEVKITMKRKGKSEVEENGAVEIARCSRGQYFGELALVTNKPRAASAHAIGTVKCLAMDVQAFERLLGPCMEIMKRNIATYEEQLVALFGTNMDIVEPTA

molecular target: cAMP-dependent protein kinase catalytic subunit beta (Homo sapiens) + cAMP-dependent protein kinase type II-beta regulatory subunit (Homo sapiens) (UniProt P22694+P31323); assay: compounds dissociating PKAc from R2B subunit – biochemical, fluorescence polarization, Cy5-IP20, human, primary screen (AID 504700); details: PKA-R2B holoenzyme dissociation, at 11.4 µM, active compounds read high, 0% DMSO only, 100% 113 µM cGMP, R2B truncated from residue 108, S112A mutant;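 further: higher means more holoenzyme dissociation and a rise in polarization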

Row | SMILES | activation
1 | COc1cccc(C(=O)NCC2(N3CCCCC3)CCCCC2)c1 | inactive: 3.05%
2 | COc1ccc(Cl)cc1C(=O)NCC1(N(C)C)CCCCC1 | inactive: 0.04%
3 | O=C(NCC1(N2CCCCC2)CCCCC1)c1cccc(Cl)c1 | inactive: -7.66%
4 | CN(C)C1(CNC(=O)c2ccc(Br)cc2)CCCCC1 | inactive: 2.8%
5 | COc1cc(C(=O)NCC2(N(C)C)CCCCC2)c([N+](=O)[O-])cc1OC | inactive: 6.18%
6 | C=C(C)C#CC(O)(C(=O)OC1CCN(C)CC1)c1ccccc1 (stereo unspecified) | inactive: 5.21%
7 | COc1ccc(Br)c(C(=O)NCC2(N3CCCCC3)CCCCC2)c1 | inactive: -4.51%
8 | CC(C)Oc1ccc(C(=O)NCC2(N(C)C)CCCCC2)cc1 | inactive: 11.1%
9 | O=C(OCCN1CCCC1)C(O)(c1ccccc1)c1ccccc1 | inactive: 3.83%
10 | CN(C)c1cccc(C(=O)NCC2(N(C)C)CCCCC2)c1 | inactive: -4.99%
11 | O=C(OC1CN2CCC1CC2)C(CO)(c1ccccc1)c1ccccc1 (stereo unspecified) | inactive: -0.32%
12 | CCN(CC)CC(C)C(C)OC(=O)C(O)(c1ccccc1)c1ccccc1 (stereo unspecified) | inactive: -1.78%
13 | COc1cc(SC)ccc1C(=O)NCC1(N(C)C)CCCCC1 | inactive: -8.96%
14 | CC(C)N1C(=O)CC2(CCN(CCOC(=O)C(O)(c3ccccc3)c3ccccc3)CC2)C1=O | inactive: 0.69%
15 | Cc1ccc(C(=O)NCC2(N3CCCCC3)CCCCC2)cc1 | inactive: -2.74%
16 | O=C(NCC1(N2CCCCC2)CCCCC1)c1cc([N+](=O)[O-])ccc1Cl | inactive: 10.8%
17 | CN1[C@@H]2CC[C@H]1CC(OC(=O)C(O)(c1ccccc1)c1ccccc1)C2 (stereo partly specified) | inactive: -5.62%
18 | C=CCN1CCN(CCOC(=O)C(O)(c2ccccc2)c2ccccc2)CC1 | inactive: -3.55%
19 | O=C(NCC1(N2CCCCC2)CCCCC1)c1cc(F)c(F)cc1Cl | inactive: -8.49%
20 | COc1ccc(C(=O)NCC2(N(C)C)CCCCC2)cc1 | inactive: -3.99%
21 | Cc1cc(C(=O)NCC2(N3CCCCC3)CCCCC2)ccc1[N+](=O)[O-] | inactive: -5.79%
22 | CCN1CCCC(OC(=O)C2(O)c3ccccc3C=Cc3ccccc32)C1 (stereo unspecified) | inactive: -9.73%
23 | O=C(NCC1(N2CCCCC2)CCCCC1)c1cccc(Br)c1 | inactive: 3.6%
24 | Cc1ccccc1C(=O)NCC1(N2CCCCC2)CCCCC1 | inactive: 0.34%
25 | CN(C)C1CCCC1OC(=O)C(O)(c1ccccc1)c1ccccc1 (stereo unspecified) | inactive: -1.33%
26 | CN(C)c1ccc(C(=O)NCC2(N(C)C)CCCCC2)cc1 | inactive: 12.3%
